The source of these data is PubChem BioAssay AID1159614 (National Center for Advancing Translational Sciences (NCATS), 2016).

The chains behind the UniProt entries cited, without tags or fusion partners.
UniProt P54803, whole entry G286D: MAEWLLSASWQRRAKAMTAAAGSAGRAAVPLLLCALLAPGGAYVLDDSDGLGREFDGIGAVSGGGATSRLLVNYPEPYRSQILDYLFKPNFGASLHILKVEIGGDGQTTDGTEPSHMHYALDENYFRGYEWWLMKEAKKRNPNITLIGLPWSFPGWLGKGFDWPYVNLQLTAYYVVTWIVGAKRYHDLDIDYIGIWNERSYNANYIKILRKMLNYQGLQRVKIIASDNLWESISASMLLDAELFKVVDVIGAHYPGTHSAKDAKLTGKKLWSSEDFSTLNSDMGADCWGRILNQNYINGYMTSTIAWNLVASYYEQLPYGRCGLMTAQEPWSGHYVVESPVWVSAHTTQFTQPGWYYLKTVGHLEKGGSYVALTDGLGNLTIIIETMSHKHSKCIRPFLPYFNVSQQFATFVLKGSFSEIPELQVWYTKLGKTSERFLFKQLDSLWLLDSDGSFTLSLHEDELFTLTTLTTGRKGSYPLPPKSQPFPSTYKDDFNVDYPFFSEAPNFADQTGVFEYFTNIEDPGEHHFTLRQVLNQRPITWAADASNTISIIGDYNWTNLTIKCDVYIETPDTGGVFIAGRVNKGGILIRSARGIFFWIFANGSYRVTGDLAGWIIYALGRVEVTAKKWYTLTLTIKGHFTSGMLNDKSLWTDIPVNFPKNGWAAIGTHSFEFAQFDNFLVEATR

The structures appear in SMILES notation. Only a part is listed here, and it is no random draw. Calls of active or inactive are those of the source. The call rests on the fitted dose curve; in most records, active means well fitted activation curve with a large enough effect; inconclusive means small, poorly fitted or top-dose-only effect; inactive means no such curve, though single readings can be large or run the other way.

In this experiment the target is Galactocerebrosidase (Homo sapiens) (UniProt P54803). Briefly: A Novel Cell-Based Assay to Identify Small Molecules for B -Galactocerebrosidase. Further: 0% is about no effect; nearly all actives have a fitted effect of over 65% in size. As to conditions: 145M-Twi-hGALC-G270D cells (Twitcher mouse brain line with human GALC G270D), HMU-beta-Gal fluorescence, 48 h; at 57.5 µM (top of the series).
For the compound `O=C(NCC1(N2CCOCC2)CCCCC1)c1ccccc1`, the activation is inactive: -15%.
For `O=C(NCC1(N2CCOCC2)CCCCC1)c1ccc([N+](=O)[O-])cc1`, the activation was inactive: -3.71%.
For `CCC(=O)N(c1ccccc1)C1CCNCC1`, the activation was inactive: -2.29%.
For the compound `COc1cc(C(=O)NCC2(N3CCOCC3)CCCCC2)cc(OC)c1OC`, the activation was inactive: -6.65%.
Take `CC(C)(C)c1ccc(C(=O)NCC2(N3CCOCC3)CCCCC2)cc1`: the activation is inactive: -13.4%.
As to `Cc1ccccc1C(=O)NCC1(N(C)C)CCCCC1`, the activation was inactive: -7.41%.
In the case of `CN(C)C1(CNC(=O)c2ccc(C(C)(C)C)cc2)CCCCC1` it was inactive: -3.14%.
On to `COc1ccccc1C(=O)NCC1(N2CCOCC2)CCCCC1`, for which the activation is inactive: -11.8%.
`O=C(NCC1(N2CCOCC2)CCCCC1)c1ccc(Cl)cc1`: the activation is inactive: 0.3%.
On to `CCOC(=O)N1CCC(=O)CC1`, for which the activation is inactive: -14.7%.
As for `CCCCOc1ccccc1C(=O)NCC1(N2CCOCC2)CCCCC1`, the activation was inactive: -5.22%.
As for `O=C(NCC1(N2CCOCC2)CCCCC1)c1ccccc1Br`, the activation was inactive: 1.46%.
With `CCCOc1cccc(C(=O)NCC2(N3CCOCC3)CCCCC2)c1`, the activation was inactive: -5.59%.
Regarding `CCOc1ccc(C(=O)NCC2(N3CCOCC3)CCCCC2)cc1`, the activation was inactive: 0.119%.
